Test results reported in patent US20140221499A1, “NOVEL RODENT CONTROL AGENTS AND USES THEREOF” (priority 2011, published 2014).

System: mouse olfactory sensory neurons
Test: Confocal calcium imaging of olfactory sensory neurons in tissue slices
Format: cell-based
Protocol: The mammalian olfactory system encodes odor identity using combinations of olfactory receptors (11). […] Here, we used a confocal imaging strategy to record cytosolic calcium transients of single sensory neurons in real time. Viability of analyzed neurons was determined after odor exposures by KCl-induced depolarization.
Confocal calcium imaging of olfactory sensory neurons in tissue slices. Recordings were performed as described (Spehr M, et al. (2006) Essential role of the main olfactory system in social recognition of major histocompatibility complex peptide ligands. J Neurosci 26(7):1961-1970) with the following modifications. For calcium sensitive dye loading, slices of olfactory epithelium were incubated (30 min, 4° C.) in HEPES solution (in mM: 145 NaCl, 5 KCl, 1 CaCl2, 1 MgCl2, 10 HEPES; pH=7.3) containing Fluo-4/AM (2 μM; Molecular Probes). […] Changes in cytosolic calcium were monitored over time at 1.0 Hz frame rate. […] All cells in a given field of view were marked as individual regions of interest (ROIs), and the relative fluorescence intensity for each ROI was calculated and processed as a function of time.

NCCc1ccccc1 [2-phenylethylamine]
carnivore odor-selective neurons that responded to 2-phenylethylamine (neurons activated by 100:1 lion urine): 10/18 | carnivore odor-selective neurons that responded to 2-phenylethylamine (neurons activated by 10,000:1 lion urine): 13/21
